Measurements as given in patent publication US20050064485A1, “Multiplex binding and activity assays” (priority 2003, published 2005).

Biological target: T1, Epidermal Growth Factor Receptor (EGFR) Tyrosine Kinase (Homo sapiens, UniProt P00533)
T1 construct: purchased PanVera, Madison Wis; P2628
Test: EGFR kinase multiplex FP/TR-RET library screen and follow-up titration
Assay type: biochemical
Details: 10 μM library compound

COc1cc2ncnc(Nc3cccc(Cl)c3)c2cc1OC [Tyrophostin AG 1478, Tyrphostin AG1478]
inhibition in library screen: strong inhibition
